Tested on: hepatofibrosis in rats
Assay: CCl4-induced hepatofibrosis in chronic hepatitis in rats
Type: in vivo, Sprague Dawley rats
Settings: serum; 8 mg/kg, 6 weeks
Protocol: 120 rats were randomly divided into 12 groups, with 10 in each group, namely, a normal control group, a model group, […] Apart from the normal control group, all rats were s.c. injected 0.3 ml of 40% solution of CC14 in oil per 100 g of body weight once every 3 days for 6 weeks. Animals in the normal control group were s.c. injected 0.3 ml/100 g body weight of oil vehicle following the same schedule as the experimental groups. First dose was doubled for all animals. Six weeks later, drugs were continuously administered to animals in each group for 6 weeks. After the administration was completed, all animals were anaesthetised with i.p. injection of 20% ethyl carbamate solution (Beijing Tongxian District Yucai Fine Chemicals). Blood was collected from abdominal aorta. Hepatic lobule tissue was removed, part of which was fixed with 10% neutral foinialin solution and made into wax blocks within 24-48 hours. […] Serum HA, LN, Pc III levels and hepatic HYP level were determined according to the respective kit instructions.

## CN(CCOc1ccc(CC2SC(=O)NC2=O)cc1)c1ccccn1 (stereo not drawn) [Rosiglitazone, reference compound]
  HA: 88.9 ± 20.5 µg/L
  LN: 63.6 ± 16.8 µg/L
  PCIII: 26.5 ± 9.6 µg/L

— patent US20100130604A1, “USE OF ROSMARINIC ACID IN MANUFACTURE OF MEDICAMENTS FOR TREATING OR PREVENTING HEPATIC AND RENAL DISEASES” (SHANGDONG LUYE NATURAL DRUG RESEARCH AND DEVELOPMENT CO., …, priority 2006, published 2010)
